Laboratory results taken from patent publication US10618918B2, “Substituted boronic acids as antimicrobials” (priority 2015, dated 2020).

Amino acid sequences for entries named in this document (tags omitted). A change or cut given only in a name is not applied to a line headed by its entry. Residues count along the entry.
UniProt P05364, 21-381: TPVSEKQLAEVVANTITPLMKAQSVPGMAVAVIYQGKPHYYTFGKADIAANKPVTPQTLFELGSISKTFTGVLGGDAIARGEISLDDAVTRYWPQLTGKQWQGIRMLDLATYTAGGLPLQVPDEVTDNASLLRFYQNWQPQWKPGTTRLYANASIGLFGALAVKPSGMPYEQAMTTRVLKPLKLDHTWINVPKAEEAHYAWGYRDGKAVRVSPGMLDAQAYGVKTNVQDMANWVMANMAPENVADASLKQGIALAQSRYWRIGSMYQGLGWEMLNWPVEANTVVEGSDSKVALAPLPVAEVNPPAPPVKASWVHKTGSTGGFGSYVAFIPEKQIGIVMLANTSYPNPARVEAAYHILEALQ
UniProt P24735: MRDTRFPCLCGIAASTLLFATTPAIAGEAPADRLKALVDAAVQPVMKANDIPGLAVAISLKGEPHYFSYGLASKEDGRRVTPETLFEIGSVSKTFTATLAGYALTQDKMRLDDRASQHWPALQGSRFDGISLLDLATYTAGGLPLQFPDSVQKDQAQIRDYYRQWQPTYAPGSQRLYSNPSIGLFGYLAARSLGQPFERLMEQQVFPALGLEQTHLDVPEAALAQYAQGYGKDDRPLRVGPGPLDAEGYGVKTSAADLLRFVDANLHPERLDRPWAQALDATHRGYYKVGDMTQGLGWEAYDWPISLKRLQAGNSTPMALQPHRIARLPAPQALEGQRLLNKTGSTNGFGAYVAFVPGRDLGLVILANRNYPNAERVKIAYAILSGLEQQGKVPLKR

What was measured:
[1] = target: purified class A, C and D enzymes (β-lactamases) (Enterobacter cloacae, UniProt P05364); format: biochemical; conditions: read-out: Ki (P99, NCF)
[2] = target: T1, purified class A, C and D enzymes (β-lactamases) (Pseudomonas aeruginosa, UniProt P24735); format: biochemical; conditions: read-out: Ki (Pa-AmpC, NCF)
T1 construct: rows headed: Ki (Pa-AmpC, NCF), uM; other: purified Pa-AmpC; nitrocefin (NCF) as reporter substrate

Substance: Disodium; 4,4-dihydroxy-8-(1H-triazol-4-ylmethoxy)-5-oxa-4-boranuidabicyclo[4.4.0]deca-1(6),7,9-triene-7-carboxylate [Compound 24]
- Ki [1]: < 100 nM
- Ki [2]: < 100 nM
